Results taken from ChEMBL document CHEMBL4828734, “Discovery of High-Affinity Inhibitors of the BPTF Bromodomain” (J Med Chem, 2021).

Target: Nucleosome-remodeling factor subunit BPTF (Homo sapiens, UniProt Q12830)
Test: biochemical

Cn1ncc(N[C@@H]2CCNC2)c(Cl)c1=O
Kd: 6 µM
